Results on 2 compounds are retold here after patent publication US20090209474A1, “NOVEL USES FOR DRUGS TARGETING GLUTAMINE SYNTHETASE” (NEWTHERA, priority 2005, published 2009).

Protein sequences, listed by entry. Tags and fused reporters are not part of them. Residues count along the entry.
UniProt P15105, 2-373 limits assumed: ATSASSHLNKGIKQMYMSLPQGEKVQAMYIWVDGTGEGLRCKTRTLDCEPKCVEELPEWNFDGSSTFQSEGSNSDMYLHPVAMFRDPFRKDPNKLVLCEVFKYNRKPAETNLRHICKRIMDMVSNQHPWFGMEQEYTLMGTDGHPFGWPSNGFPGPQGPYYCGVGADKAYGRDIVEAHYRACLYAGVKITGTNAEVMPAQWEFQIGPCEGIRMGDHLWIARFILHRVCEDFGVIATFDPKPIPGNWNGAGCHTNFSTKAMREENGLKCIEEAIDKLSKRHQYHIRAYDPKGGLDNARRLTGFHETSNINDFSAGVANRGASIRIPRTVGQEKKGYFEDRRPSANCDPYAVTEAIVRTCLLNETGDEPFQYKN
UniProt P09606, 2-373 limits assumed: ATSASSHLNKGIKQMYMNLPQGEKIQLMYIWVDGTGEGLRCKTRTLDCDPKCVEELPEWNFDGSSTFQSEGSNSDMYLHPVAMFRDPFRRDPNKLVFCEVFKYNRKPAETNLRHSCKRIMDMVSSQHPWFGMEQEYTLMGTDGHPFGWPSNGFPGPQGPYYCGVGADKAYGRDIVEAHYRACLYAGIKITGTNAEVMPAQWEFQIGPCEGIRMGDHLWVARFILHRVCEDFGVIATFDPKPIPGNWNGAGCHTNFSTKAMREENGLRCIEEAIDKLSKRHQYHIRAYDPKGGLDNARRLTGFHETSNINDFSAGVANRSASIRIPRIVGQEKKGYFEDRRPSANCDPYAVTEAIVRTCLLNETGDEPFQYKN

The conditions of data set [1]: over 48 hours; cited from earlier work.
In a further data set the test system is Wistar rats. The experiment in a line: PTZ-induced seizures. Type of data set: in vivo. Conditions: GF 0.5, 5, 25 mg/kg, tianeptine 1, 10, 50 mg/kg i.p. 1 h before PTZ 50 mg/kg i.p.
Data set [2] addresses GS (Mus musculus, UniProt P15105). Conditions: 24 h after single i.p.
Data set [3] has as its target GS (Rattus norvegicus, UniProt P09606). The data set is classed as in vivo, Wistar rats. Details: Wistar rat brain homogenates were incubated with naftazone; from tissue; host or cells: Wistar rat brain homogenate or membranes; in A19 also liver and lungs.

Regarding `CP(=O)(O)CCC(N)C(=O)O` (racemic) [GF, ammonium 4-[hydroxy (methyl)phosphinoyl]-DL-homoalaninate], in data set [1], the “part of an oral dose unabsorbed, eliminated unchanged in the faeces” value is on record as 80-90%.

In the case of `CN1c2ccccc2C(NCCCCCCC(=O)O)c2ccc(Cl)cc2S1(=O)=O` (stereo not shown) [tianeptine, 7-[(3-chloro-6,11-dihydro-6-methyl-dibenzo[c,f][1,2]thiazepin-11-yl)amino] heptanoic acid S,S-dioxide], the “seizure occurrence after PTZ administration” value with Wistar rats was “decreased seizure occurrence”. Also, at GS [2], the “GS activity in the hippocampus” value is “dose-dependently increased GS activity” and the “GS activity in the thalamus/hypothalamus” value is given as “decreased GS activity”. At GS [2] (GF 0.1, 3, 15 mg/kg, tianeptine 0.5, 15, 45 mg/kg), the “GS activity in the cortex” value was “no significant effect”. For the same compound, at GS [3] (one hour after PTZ administration), the “GS activity in the cortex, hippocampus and thalamus/hypothalamus” value is on record as “increased GS activity”. Also, the “dose relation of the effects on GS activity” value at GS [3] (rat, in vivo) is “not proportional to the dose”.
